Source: patent publication US20050095279A1, “Transdermal analgesic systems having reduced abuse potential” (published 2005)

Assay: Bioequivalence study, Example 15 fentanyl system vs DUROGESIC 100 μg/h (Example 31)
Settings: Treatment B (100 μg/h, 42 cm^2), samples at and before 76 hours post-application, LC/MS/MS

## O=C1CC[C@@]2(O)[C@H]3Cc4ccc(O)c5c4[C@@]2(CCN3CC2CC2)[C@H]1O5
  naltrexone concentration in the serum samples: below the detectable levels
